According to PubChem BioAssay (NCI):
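Each compound was tested at five concentrations against cells in 96-well plates for 48 hours. GI50: concentration for 50% inhibition of growth. TGI marks complete inhibition of growth.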

Experiments:
Assay in all cases: DTP human tumour cell line panel, 48 h
SW-620 colon = test system: SW-620 colon
U251 CNS = test system: U251 CNS
TK-10 renal = test system: TK-10 renal
HCT-15 colon = test system: HCT-15 colon
MDA-MB-435 = test system: MDA-MB-435
HL-60(TB) leukemia = test system: HL-60(TB) leukemia
NCI-H522 lung = test system: NCI-H522 lung
786-0 renal = test system: 786-0 renal
MDA-MB-231 breast = test system: MDA-MB-231 breast
NCI-H460 lung = test system: NCI-H460 lung
PC-3 prostate = test system: PC-3 prostate
UACC-62 melanoma = test system: UACC-62 melanoma
NCI-H23 lung = test system: NCI-H23 lung
RPMI-8226 leukemia = test system: RPMI-8226 leukemia
SR leukemia = test system: SR leukemia
M14 melanoma = test system: M14 melanoma
HCT-116 colon = test system: HCT-116 colon
HS 578T breast = test system: HS 578T breast
ACHN renal = test system: ACHN renal
HOP-92 NSCLC = test system: HOP-92 NSCLC
A498 renal = test system: A498 renal
CCRF-CEM leukemia = test system: CCRF-CEM leukemia
RXF 393 renal = test system: RXF 393 renal
MALME-3M melanoma = test system: MALME-3M melanoma
A549 NSCLC = test system: A549 NSCLC
NCI/ADR-RES ovarian = test system: NCI/ADR-RES ovarian
SK-MEL-28 melanoma = test system: SK-MEL-28 melanoma
BT-549 breast = test system: BT-549 breast
OVCAR-5 ovarian = test system: OVCAR-5 ovarian
EKVX NSCLC = test system: EKVX NSCLC
SNB-19 CNS = test system: SNB-19 CNS
SF-268 CNS = test system: SF-268 CNS
LOX IMVI melanoma = test system: LOX IMVI melanoma
OVCAR-8 ovarian = test system: OVCAR-8 ovarian
SK-MEL-5 melanoma = test system: SK-MEL-5 melanoma
UACC-257 melanoma = test system: UACC-257 melanoma
HOP-62 NSCLC = test system: HOP-62 NSCLC
MOLT-4 leukemia = test system: MOLT-4 leukemia
K-562 leukemia = test system: K-562 leukemia
OVCAR-4 ovarian = test system: OVCAR-4 ovarian
UO-31 renal = test system: UO-31 renal
SK-MEL-2 melanoma = test system: SK-MEL-2 melanoma
OVCAR-3 ovarian = test system: OVCAR-3 ovarian
NCI-H322M lung = test system: NCI-H322M lung
SF-295 CNS = test system: SF-295 CNS
CAKI-1 renal = test system: CAKI-1 renal
KM12 colon = test system: KM12 colon
HCC-2998 colon = test system: HCC-2998 colon
NCI-H226 lung = test system: NCI-H226 lung
T-47D breast = test system: T-47D breast
MDA-N = test system: MDA-N
DU-145 prostate = test system: DU-145 prostate
HT29 colon = test system: HT29 colon
SN12C renal = test system: SN12C renal
IGROV1 ovarian = test system: IGROV1 ovarian

SMILES: [N-]=[N+]=NCC(O)CN=[N+]=[N-] (stereo not given)
- GI50 (SW-620 colon): > 100 µM
- TGI (SW-620 colon): > 100 µM
- GI50 (U251 CNS): > 100 µM
- TGI (U251 CNS): > 100 µM
- GI50 (TK-10 renal): > 100 µM
- TGI (TK-10 renal): > 100 µM
- GI50 (HCT-15 colon): > 100 µM
- TGI (HCT-15 colon): > 100 µM
- GI50 (MDA-MB-435): > 100 µM
- TGI (MDA-MB-435): > 100 µM
- GI50 (HL-60(TB) leukemia): > 100 µM
- TGI (HL-60(TB) leukemia): > 100 µM
- GI50 (NCI-H522 lung): > 100 µM
- TGI (NCI-H522 lung): > 100 µM
- GI50 (786-0 renal): > 100 µM
- TGI (786-0 renal): > 100 µM
- GI50 (MDA-MB-231 breast): > 100 µM
- TGI (MDA-MB-231 breast): > 100 µM
- GI50 (NCI-H460 lung): > 100 µM
- TGI (NCI-H460 lung): > 100 µM
- GI50 (PC-3 prostate): > 100 µM
- TGI (PC-3 prostate): > 100 µM
- GI50 (UACC-62 melanoma): > 100 µM
- TGI (UACC-62 melanoma): > 100 µM
- GI50 (NCI-H23 lung): > 100 µM
- TGI (NCI-H23 lung): > 100 µM
- GI50 (RPMI-8226 leukemia): > 100 µM
- TGI (RPMI-8226 leukemia): > 100 µM
- GI50 (SR leukemia): > 100 µM
- TGI (SR leukemia): > 100 µM
- GI50 (M14 melanoma): > 100 µM
- TGI (M14 melanoma): > 100 µM
- GI50 (HCT-116 colon): > 100 µM
- TGI (HCT-116 colon): > 100 µM
- GI50 (HS 578T breast): > 100 µM
- TGI (HS 578T breast): > 100 µM
- GI50 (ACHN renal): > 100 µM
- TGI (ACHN renal): > 100 µM
- GI50 (HOP-92 NSCLC): > 100 µM
- TGI (HOP-92 NSCLC): > 100 µM
- GI50 (A498 renal): > 100 µM
- TGI (A498 renal): > 100 µM
- GI50 (CCRF-CEM leukemia): > 100 µM
- TGI (CCRF-CEM leukemia): > 100 µM
- GI50 (RXF 393 renal): > 100 µM
- TGI (RXF 393 renal): > 100 µM
- GI50 (MALME-3M melanoma): > 100 µM
- TGI (MALME-3M melanoma): > 100 µM
- GI50 (A549 NSCLC): > 100 µM
- TGI (A549 NSCLC): > 100 µM
- GI50 (NCI/ADR-RES ovarian): > 100 µM
- TGI (NCI/ADR-RES ovarian): > 100 µM
- GI50 (SK-MEL-28 melanoma): > 100 µM
- TGI (SK-MEL-28 melanoma): > 100 µM
- GI50 (BT-549 breast): > 100 µM
- TGI (BT-549 breast): > 100 µM
- GI50 (OVCAR-5 ovarian): > 100 µM
- TGI (OVCAR-5 ovarian): > 100 µM
- GI50 (EKVX NSCLC): > 100 µM
- TGI (EKVX NSCLC): > 100 µM
- GI50 (SNB-19 CNS): > 100 µM
- TGI (SNB-19 CNS): > 100 µM
- GI50 (SF-268 CNS): > 100 µM
- TGI (SF-268 CNS): > 100 µM
- GI50 (LOX IMVI melanoma): > 100 µM
- TGI (LOX IMVI melanoma): > 100 µM
- GI50 (OVCAR-8 ovarian): > 100 µM
- TGI (OVCAR-8 ovarian): > 100 µM
- GI50 (SK-MEL-5 melanoma): > 100 µM
- TGI (SK-MEL-5 melanoma): > 100 µM
- GI50 (UACC-257 melanoma): > 100 µM
- TGI (UACC-257 melanoma): > 100 µM
- GI50 (HOP-62 NSCLC): > 100 µM
- TGI (HOP-62 NSCLC): > 100 µM
- GI50 (MOLT-4 leukemia): > 100 µM
- TGI (MOLT-4 leukemia): > 100 µM
- GI50 (K-562 leukemia): > 100 µM
- TGI (K-562 leukemia): > 100 µM
- GI50 (OVCAR-4 ovarian): > 100 µM
- TGI (OVCAR-4 ovarian): > 100 µM
- GI50 (UO-31 renal): > 100 µM
- TGI (UO-31 renal): > 100 µM
- GI50 (SK-MEL-2 melanoma): > 100 µM
- TGI (SK-MEL-2 melanoma): > 100 µM
- GI50 (OVCAR-3 ovarian): > 100 µM
- TGI (OVCAR-3 ovarian): > 100 µM
- GI50 (NCI-H322M lung): > 100 µM
- TGI (NCI-H322M lung): > 100 µM
- GI50 (SF-295 CNS): > 100 µM
- TGI (SF-295 CNS): > 100 µM
- GI50 (CAKI-1 renal): > 100 µM
- TGI (CAKI-1 renal): > 100 µM
- GI50 (KM12 colon): > 100 µM
- TGI (KM12 colon): > 100 µM
- GI50 (HCC-2998 colon): > 100 µM
- TGI (HCC-2998 colon): > 100 µM
- GI50 (NCI-H226 lung): 95.1 µM
- TGI (NCI-H226 lung): > 100 µM
- GI50 (T-47D breast): > 100 µM
- TGI (T-47D breast): > 100 µM
- GI50 (MDA-N): > 100 µM
- TGI (MDA-N): > 100 µM
- GI50 (DU-145 prostate): > 100 µM
- TGI (DU-145 prostate): > 100 µM
- GI50 (HT29 colon): > 100 µM
- TGI (HT29 colon): > 100 µM
- GI50 (SN12C renal): > 100 µM
- TGI (SN12C renal): > 100 µM
- GI50 (IGROV1 ovarian): > 100 µM
- TGI (IGROV1 ovarian): > 100 µM
